Screening data (PubChem)
GIV Gai3 FP – inhibitors of GIV peptide binding to Galpha-i3, primary screen, biochemical, fluorescence polarization, FITC-GIV GBA peptide, rat Galphai3; 90 min; stronger effect = lower value; scaled: aluminum fluoride 0%, vehicle 100%; percent of control (FP), % (no concentration beside the values); 210,000 tested, 0.42% active; AID 1224905, 2016;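 active = replicate mean at 85% of control or lower, very high polarization wells dropped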;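 note: wells of about 15 µL received 100 nL stock; the first replicate is given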
GIV-Gai FP conf – GIV-Galpha-i3 inhibition, FP confirmation; shares compounds with GIV Gai3 FP; FITC-GIV peptide binding to Galphai3, fluorescence polarization; hits give low values; fluorescence polarization, mP at 100 µM; 38% of 580 active; AID 1259350;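 active means inhibition score of 15 or more, meaning 100 minus mean polarization as percent of control over three replicates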;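 further: lower mP means peptide displaced from Galphai3 so more inhibition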
GIV Gai AS conf – confirmation of inhibitors of GIV binding to human Galpha-i3; shares compounds with GIV Gai3 FP; AlphaScreen Galphai3-GIV binding, purified proteins, 90 min; hits give low values; AlphaScreen counts at 100 µM; 39% of 580 active; AID 1259351;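 active means inhibition score at or above a set limit, where the score is 100 minus the three-replicate mean percent of control signal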
A number is an active result; – = inactive; ! = not active in a repeat. The full list was thinned out, with hits kept by preference.

SMILES	GIV Gai3 FP	others
CCOc1ccc(/C(O)=C2/C(=O)C(=O)N(c3ccc(C)cc3)C2(O)C(=O)OC)cc1 (stereo unspecified)	–
CC1=C(C(N)=O)C(c2cccc(Br)c2)n2ncnc2N1 (stereo unspecified)	–
Fc1ccc(C2C=C(c3ccc(Br)cc3)Nc3nc4ccccc4n32)cc1 (stereo unspecified)	–
O=C1CC(=O)c2ccc3c4c(ccc1c24)C(=O)CC3=O	74	GIV-Gai FP conf=53;GIV Gai AS conf=2272
Nc1ccc2c(c1)CCC2=O	–
O=c1ccn(-c2ccc(Cl)cc2)nc1-c1nc(-c2ccc(F)c(Br)c2)no1	–
COc1ccc(-c2cc(OCC(=O)Nc3ccc4c(c3)OCCO4)c3ccccc3n2)cc1	–
COC(=O)c1c(C)sc(-c2c(-c3ccc(OC)c(OC)c3)[nH]c3c2c(=O)n(C)c(=O)n3C)c1O	–
CC(C)(C)c1ccc(OCC(=O)Nc2noc(-c3ccccc3)n2)cc1	–
CC(=O)Nc1cnn(-c2ccccc2)c(=O)c1Cl	–
O=C(C1CCCC1)N1CCN(c2cnn(-c3ccccc3)c(=O)c2Cl)CC1	–
O=C(O)c1ccc(-n2ncc(Cl)c(Cl)c2=O)cc1	78!	GIV-Gai FP conf=–;GIV Gai AS conf=–
Clc1cc2nc(-c3ccccc3)c(-c3ccccc3)nc2cc1Cl	–
CCNc1nc(N2CCCC2)nc(-n2cnc(SC)n2)n1	–
CC(C(=O)Nc1ccc(Br)cc1)n1nnc2sc(-c3ccccc3)cc2c1=O (stereo unspecified)	–
CCOC(=O)C1=C(C)NC2=C(C(=O)C(C(=O)OCC)C(c3cccc(OC)c3)C2)C1c1ccc(OC)cc1OC (stereo unspecified)	–
CCCC(/N=C/c1cc(Cl)ccc1O)/N=C/c1cc(Cl)ccc1O	–
Cc1ccc(C=Nc2cccc3nsnc23)c(O)c1	–
Oc1ccc(Cl)cc1C=Nc1cccc2nsnc12	74	GIV-Gai FP conf=58;GIV Gai AS conf=6922
O=C(CC1SC(=O)NC1=O)Nc1ccc(O)cc1 (stereo unspecified)	–
Cc1ccccc1NC(=O)CC1SC(=O)NC1=O (stereo unspecified)	–
O=C(CC1SC(=O)NC1=O)Nc1cccc(NC(=O)CC2SC(=O)NC2=O)c1 (stereo unspecified)	76	GIV-Gai FP conf=62;GIV Gai AS conf=9767
COc1cccc(-c2nc3c4ccccc4ncn3n2)c1	78	GIV-Gai FP conf=–;GIV Gai AS conf=–
Clc1ccccc1-c1nc2c3ccccc3ncn2n1	–
COc1ccccc1-c1nc2c3ccccc3ncn2n1	–
SMILES	GIV Gai3 FP	others
COc1ccc(NS(=O)(=O)c2cc(-c3cc(C(F)(F)F)on3)sc2C)cc1	–
CC1CCc2onc(C(=O)N3CCCc4ccccc43)c2C1 (stereo unspecified)	–
O=C(O)c1cccc(-n2cccc2C=C2C(=O)c3ccccc3C2=O)c1	–
CCN1C(=O)C(=Cc2cccn2-c2ccc(O)cc2)C(=O)N(CC)C1=S	–
O=C1C(=Cc2cccn2-c2ccc(O)cc2)C(=O)c2ccccc21	72	GIV-Gai FP conf=6.1;GIV Gai AS conf=19282
Cc1n[nH]c(=O)c2cc(S(=O)(=O)N3CCCCC3)cn12	–
CC1CC1C(=O)Nc1ccc2[nH]ncc2c1 (stereo unspecified)	–
O=C1/C(=C/c2ccc(Cl)cc2)C=C(c2ccccc2)N1c1ccc(Cl)cc1	82	GIV-Gai FP conf=–;GIV Gai AS conf=–
O=C1/C(=C/c2ccc(Cl)cc2)C=C(c2ccccc2)N1c1ccccc1	–
O=C1/C(=C/c2ccc(Cl)cc2)C=C(c2ccccc2)N1c1ccc(O)cc1	–
COc1ccccc1N1CCN(C(=O)c2cnn3c(C)c(Cc4cccc(Cl)c4)c(C)nc23)CC1	–
O=C1CC(c2ccc(Cl)cc2)C2=C(CC(c3cccs3)CC2=O)N1 (stereo unspecified)	–
O=C(O)c1cc2c3c(c1)C1C=CCC1C(c1ccccc1F)N3CC1CC=CC21 (stereo unspecified)	74	GIV-Gai FP conf=21;GIV Gai AS conf=3685
O=C(O)c1cc2c3c(c1)C1C=CCC1C(c1ccc(F)cc1)N3CC1CC=CC21 (stereo unspecified)	–
O=C(O)c1cccc2c1NC(c1ccccc1F)C1CC=CC21 (stereo unspecified)	–
O=[N+]([O-])c1cc2c3c(c1)C1C=CCC1C(c1ccc(F)cc1)N3CC1CC=CC21 (stereo unspecified)	–
O=C(O)c1cc2c3c(c1)C1C=CCC1C(c1cccc([N+](=O)[O-])c1)N3CC1CC=CC21 (stereo unspecified)	–
O=C(O)c1cc2c3c(c1)C1C=CCC1C(c1ccccc1)N3CC1CC=CC21 (stereo unspecified)	81	GIV-Gai FP conf=47;GIV Gai AS conf=7304
COc1cc(-c2cc(C(F)(F)F)n3ncc(C(=O)NCc4cccs4)c3n2)cc(OC)c1OC	–
O=C(O)CNc1ccc(-n2ccnc2)nn1	–
COc1ccc(C2=NN(C(=O)CSc3nnc(CNC(=O)c4cccc(F)c4)n3C)C(c3cccc(OC)c3OC)C2)cc1 (stereo unspecified)	–
CCOC(=O)c1cnc(SC)nc1-c1ccccc1	–
COc1cc(/C=c2/sc3nc4cc(C)c(C)cc4n3c2=O)ccc1OCc1ccccc1	–
Cc1ccc(OCC(=O)Nc2cccc(-c3nc4ccccc4c(=O)o3)c2)cc1	–
Cc1nc(N)sc1Cc1ccc(O)cc1	–
SMILES	GIV Gai3 FP	others
COc1ccc2c(c1)N(C)/C(=c1/s/c(=C3/C(=O)N(c4ccccc4)N=C3C)n(C)c1=O)S2	73	GIV-Gai FP conf=–;GIV Gai AS conf=–
COc1ccc2c(c1)N(C)/C(=C1/SC(=O)N(c3ccccc3)C1=O)S2	–
COc1ccc2c(c1)N(C)/C(=c1/s/c(=C3/C(=O)N(C)C(=S)N3C)n(Cc3ccccc3)c1=O)S2	–
COc1ccc(Br)c(C(=O)Nn2c(-c3cc(OC)c(OC)c(OC)c3)nc3ccccc3c2=O)c1	–
CCN(CC)C(=O)CSc1nc2cc3c(cc2c(=O)n1CCC1=CCCCC1)OCO3	–
CC1CCC(NS(=O)(=O)c2ccc3[nH]c(=O)[nH]c3c2)CC1 (stereo unspecified)	–
CCOC(=O)CSc1n[nH]c(-c2ccco2)n1	–
O=C(CSc1n[nH]c(-c2ccco2)n1)N1c2ccccc2Sc2ccccc21	–
O=C(O)c1ccc(CSc2n[nH]c(-c3ccco3)n2)cc1	78	GIV-Gai FP conf=58;GIV Gai AS conf=2493
COC(CNC(=O)c1ccc(-n2c(C)cc3c2CCCC3)cc1)OC	–
CCc1cccc(N2C(=O)c3ccncc3C2=O)c1	–
COCCCNC(=O)C1CCN(C(=O)c2cccn2-c2cccnc2)CC1	–
Cc1ccc(C(=O)COC(=O)C(Cc2c[nH]c3ccccc23)NC(=O)c2ccc(Cl)cc2)cc1 (stereo unspecified)	–
CCc1ccc(C(=O)NC(Cc2c[nH]c3ccccc23)C(=O)OCC(=O)c2ccc(OC)cc2)cc1 (stereo unspecified)	–
CCc1ccc(C(=O)NC(Cc2c[nH]c3ccccc23)C(=O)OCC(=O)c2ccccc2)cc1 (stereo unspecified)	85	GIV-Gai FP conf=–;GIV Gai AS conf=–
CCOC(=O)c1ccccc1NC(=O)c1sc2nc(C)nc(N3CCOCC3)c2c1C	–
CCc1c(/C(C)=N/O)oc2ccc3c(C)cc(=O)oc3c12	–
COCc1nnc(NC(=O)C2C(C=C(C)C)C2(C)C)s1 (stereo unspecified)	–
CCCCNC(=O)CN1C(=O)c2ccccc2S1(=O)=O	–
